The record followed here is ChEMBL document CHEMBL1148346, “Tiplaxtinin, a novel, orally efficacious inhibitor of plasminogen activator inhibitor-1: design, synthesis, and preclinical characterization” (J Med Chem, 2004).

Each structure is given as a SMILES string.

This assay concerns the target Plasminogen activator inhibitor 1 (Homo sapiens, UniProt P05121). Briefly: Binding affinity of compound towards latent Plasminogen activator inhibitor-1 expressed as apparent Kd.

On to `O=C(O)C(=O)c1cn(Cc2ccccc2)c2ccc(-c3ccc(OC(F)(F)F)cc3)cc12` [TIPLASININ], for which the Kd turned out to be 5 µM.
